Measurements from patent US6579696B1, “Polymyxin B conjugates” (priority 1992, dated 2003).

Test system: E. coli 0111:B4

CC(C)C[C@H](NC(=O)[C@H](Cc1ccccc1)NC(=O)[C@H](CCCNC(=N)N)NC(=O)[C@H](CCCCN)NC(=O)[C@H](CCC(N)=O)NC(=O)[C@H](C)NC(=O)[C@H](CCCCN)NC(=O)[C@H](Cc1c[nH]c2ccccc12)NC(=O)[C@H](CCCCN)NC(=O)[C@@H](N)CSC1CC(=O)N(CC2CCC(C(=O)NCCCCNC(=O)CCCC[C@@H]3SC[C@@H]4NC(=O)N[C@@H]43)CC2)C1=O)C(=O)N[C@@H](CCCCN)C(=O)O (stereo partly shown) [C90-99-Cys-Biotin]
MIC: >108 µg/mL
